Measured values from ChEMBL document CHEMBL1154599 (J Med Chem, 2009).

Species on record: Rattus norvegicus
Experiment: Selectivity index, ratio of IC50 for rat MAO-A to IC50 for rat MAO-B
Procedure, shortened: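 Ratio of IC50 values from rat brain mitochondrial radioenzymatic assays: MAO-A with [14C]5-HT 5 μM, 30 min, and MAO-B with [14C]PEA 0.5 μM, 10 min. Both after 30 min preincubation with compound at 37 °C.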

In the case of `CNCc1cc(=O)oc2cc(OCc3cccc(F)c3)ccc12`, the Ratio IC50 is reported as 750.
